Source: patent publication US7176281B2 (priority 2003, dated 2007)

Target: T1, Group IIA purified human synovial sPLA2 (Homo sapiens, UniProt P14555)
T1 construct: purchased Cayman, USA
T1 sequence (P14555 21-144): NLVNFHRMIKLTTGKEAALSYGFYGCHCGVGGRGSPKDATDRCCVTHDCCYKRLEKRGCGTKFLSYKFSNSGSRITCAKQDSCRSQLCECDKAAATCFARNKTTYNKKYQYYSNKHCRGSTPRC
Assay: In vitro inhibition of purified human synovial sPLA2, 3H-labelled E. coli membranes
Assay type: biochemical
Details: purified human synovial sPLA2 (Cayman)

Work on CCc1c(C(=O)C(N)=O)c2c(OCC(=O)O)cccc2n1Cc1ccccc1 [LY315920, reference compound] yielded an IC50 of 2.29 µM.
